Values quoted from earlier work as cited in US20120283283A1, “METHODS FOR DETECTING ENHANCED RISK OF OPIOID-INDUCED HYPOXIA IN A PATIENT” (priority 2011, published 2012).

System: subjects with normal baseline oxygen saturation levels
Details: 2 mg intravenously in a 2-3 minute period; cited from earlier work

CN1CC[C@]23c4c5ccc(O)c4O[C@H]2C(=O)CC[C@H]3[C@H]1C5 [hydromorphone]
subjects with recorded oxygen saturation levels of less than 90%: 6%
